This is an account of results in PubChem BioAssay AID1515 (The Scripps Research Institute Molecular Screening Center, 2009).

Sequences of proteins named here, by UniProt entry; tags and fusion partners are left off.
UniProt O75884, whole entry: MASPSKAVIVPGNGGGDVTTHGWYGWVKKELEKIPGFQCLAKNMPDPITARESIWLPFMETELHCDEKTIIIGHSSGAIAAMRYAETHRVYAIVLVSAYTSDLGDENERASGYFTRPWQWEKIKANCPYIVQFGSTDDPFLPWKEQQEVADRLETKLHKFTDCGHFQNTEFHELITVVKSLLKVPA

This is a selection; strong and weak results do not stand in their true shares. Active and inactive are the calls of the source.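 How the source made its calls: active means inhibition above the campaign mean of all tested compounds plus 3 SD (cut at about 14% in these data); inactive means the rest.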

This experiment addresses Serine hydrolase RBBP9 (Homo sapiens) (UniProt O75884). In words: blockers of RBBP9 serine hydrolase labeling – biochemical, fluorescence polarization, FP-Rh probe, HTS, primary screen (AID 1515).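 Further: plate controls were DMSO wells with RBBP9 for no effect and wells lacking RBBP9 protein for full effect.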 The settings on record: recombinant RBBP9, FP-Rh probe fluorescence polarization; at 7.94 µM; stronger effect = higher value.
`N#Cc1ccc(C(=O)NCC2(N3CCCCC3)CCCCC2)cc1`: the inhibition (usually the drop in the measured response relative to a control, in per cent) is inactive: -2.41%.

For the compound `c1ccc(CN2CCC(Nc3ccccc3)CC2)cc1`, the inhibition is inactive: -6.1%.

As for `COc1ccc(C(=O)NCC2(N3CCOCC3)CCCCC2)cc1OC`, the inhibition was inactive: 0.73%.

As to `N/C(=N\O)c1c(N)no[n+]1[O-]`, the inhibition was inactive: -0.76%.

For `O=C(OC1CN2CCC1CC2)C1c2ccccc2C=Cc2ccccc21` (centres undefined), the inhibition was inactive: -14.4%.

Regarding `CCOc1ncccc1C(=O)NCC1(N2CCOCC2)CCCCC1`, the inhibition is inactive: -8.28%.

For `CC(C)(C)OC(=O)N1CCC(Nc2ccccc2)CC1`, the inhibition was inactive: -2.33%.

On to `COc1cc(OC)cc(C(=O)NCC2(N3CCOCC3)CCCCC2)c1`, for which the inhibition is inactive: -9.02%.

As to `CCC(CO)(C(=O)OC1CN2CCC1CC2)c1ccccc1` (centres undefined), the inhibition was inactive: -2.6%.

For `CCCOc1ccc(C)cc1CN(CCCl)CCCl`, the inhibition was inactive: -0.3%.

For `CCN1CCC(Nc2cccc(F)c2)CC1`, the inhibition was inactive: 0.74%.

Consider `CN(C)c1ccc(C(=O)NCC2(N3CCCCC3)CCCCC2)cc1`, for which the inhibition is inactive: -3.87%.

Turning to `CCOc1ccc(C)cc1CN(CCCl)CCCl`, the inhibition was inactive: 8.29%.

As to `COc1ccc(NC2CCN(CCc3ccccc3)CC2)c(OC)c1`, the inhibition is inactive: -4.84%.

`Cc1ccc(OCC(C)C)c(CN(CCCl)CCCl)c1`: the inhibition was inactive: 2.9%.

As to `COc1ccc(C(=O)NCC2(N3CCCCC3)CCCCC2)c(OC)c1OC`, the inhibition was inactive: 5.96%.

Regarding `O=C(NCC1(N2CCOCC2)CCCCC1)c1cc2ccccc2o1`, the inhibition was inactive: -3.37%.

Regarding `O=C(OC1CN2CCC1CC2)C1c2ccccc2Oc2ccccc21` (centres undefined), the inhibition is inactive: 2.38%.

With `N#CC1(Nc2ccccc2)CCN(Cc2ccccc2)CC1`, the inhibition was inactive: -4%.

In the case of `CCOC(=O)N1CCC(Nc2ccc(OC)cc2)CC1`, the inhibition was inactive: -2.64%.

Consider `CC(C)c1ccc(NC2CCN(C(=O)OC(C)(C)C)CC2)cc1`, for which the inhibition is inactive: -1.03%.

As to `CN(C)c1cccc(C(=O)NCC2(N3CCCCC3)CCCCC2)c1`, the inhibition is inactive: 3.81%.

Take `COc1ccc(CN(CCCl)CCCl)cc1Cl`: the inhibition was inactive: 8.18%.

Consider `CN1CCC(Nc2cccc(F)c2)CC1`, for which the inhibition was inactive: 1.9%.

Take `N#CC1(Nc2ccccc2)CCN(CCc2ccccc2)CC1`: the inhibition was inactive: -7.01%.

With `O=C(NCC1(N2CCCCC2)CCCCC1)c1cccc([N+](=O)[O-])c1`, the inhibition was inactive: -4.67%.

For `O=C(NCC1(N2CCOCC2)CCCCC1)c1cc(=O)[nH]c2ccccc12`, the inhibition is inactive: -0.73%.

Consider `COc1ccc(NC2CCN(C(=O)OC(C)(C)C)CC2)cc1`, for which the inhibition is inactive: 12.9%.

Take `CN1CCN(CCOC(=O)C(O)(c2ccccc2)c2ccccc2)CC1`: the inhibition is inactive: 0.9%.
